Results on two compounds are retold here after patent US11103509B2 (University of Kentucky Research Foundation, priority 2018, dated 2021).

The target of one data set is T1, human mPGES-1 (Homo sapiens, UniProt O14684).
T1 construct: made in house
T1 sequence (O14684 1-152): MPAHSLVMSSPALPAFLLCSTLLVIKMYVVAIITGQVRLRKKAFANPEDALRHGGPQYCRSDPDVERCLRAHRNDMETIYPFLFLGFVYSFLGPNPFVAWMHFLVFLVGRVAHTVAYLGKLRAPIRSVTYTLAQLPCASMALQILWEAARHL
Put plainly: in vitro inhibitory activity against human mPGES-1 (PGE2 enzyme immunoassay). In kind it is biochemical. The procedure: The above computational predictions were followed by in vitro activity assays for their actual inhibitory activity against human mPGES-1 using an ELISA assay previously-described.^16-17, 19 Specifically, a total of 18 FDA-approved drugs were assayed for their inhibitory activity against human mPGES-1.
The protocol for the protein preparation and in vitro activity assays were the same as described previously.^69-72 The enzyme activity assays were performed on ice in 1.5 ml microfuge tubes by using the expressed human mPGES-1. The reaction mixture contained: 0.2 M Na2HPO4/NaH2PO4, pH 7.2, 10 μL; 0.1 M GSH, 2.5 μL; diluted microsomal enzyme (80 μg/mL), 1 μL; PGH2 (0.31 mM in DMF), 5 μL; 1 μL inhibitor; and H2O in a final reaction volume of 100 μL. PGH2 was stored in dry ice and used to initiate the reaction. Compounds were incubated with the enzyme for 15 min at room temperature before the addition of cold PGH2 (1 μM final) to initiate the enzyme reaction. After 30 s, 10 μL of SnCl2 (40 mg/mL) in ethanol was added to stop the reaction. The non-enzymatic conversion of PGH2 to PGE2 was performed in the same buffer devoid of enzyme. The reaction mixture was placed on ice until PGE2 production was determined by the PGE2 enzyme immunoassay as described earlier. IC50 values of the inhibitors were calculated by using the GraphPad Prism 6.0.

For data set [1] the following is noted: human, dose 900 mg, tablets, daily oral, trial EGF10004; read-out: Cmax (μM) in plasma; cited from earlier work.
A further data set relates to pain in cancer patients. The note with it: NCT00490139 Group III: oral lapatinib 1500 mg daily, 52 weeks; cited from earlier work.

In the case of `C[C@]12C=CC(=O)C=C1CC[C@@H]1[C@@H]2[C@@H](O)C[C@@]2(C)[C@H]1CC[C@]2(O)C(=O)CO` [Prednisolone], the IC50 at human mPGES-1 was determined as 12.6 ± 1.6 µM.
On to `CS(=O)(=O)CCNCc1ccc(-c2ccc3ncnc(Nc4ccc(OCc5cccc(F)c5)c(Cl)c4)c3c2)o1` [lapatinib], for which the peak concentration (Cmax) in data set [1] is 2.93 µM. The “Back Pain, Patient counts” value in the data set on pain in cancer patients is listed as 119/2057.

For orientation: IC50 means the concentration that gives 50% inhibition. Lower therefore signals higher potency. The Cmax is the maximum level reached in the sampled fluid or tissue.
